## Binding of CDR-mutated scFvs to a peptide of the spike HR2 region

Target: peptide PDVDLGDISGINAS, taken from heptad repeat 2 (HR2) of SARS-CoV-2 spike.

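The starting antibody came from a phage panning campaign against this peptide. Library AAYL52 holds single substitutions and randomly drawn double and triple substitutions in the CDRs. AlphaSeq pools MATa yeast showing the antibodies with MATalpha yeast showing the peptide. Mating (16 h, 30 °C) was followed by selection of diploids and sequencing of their barcodes. The ratio of observed to expected reads was calibrated, replicate by replicate, on BCL2-family standards whose Kd was known from biolayer interferometry. Mating was done three times.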

Parent scFv Ab-95: VH joined to VL by the linker GGGGSGGGGSGGGGS. Changes lie in the light chain CDRs alone.
VH: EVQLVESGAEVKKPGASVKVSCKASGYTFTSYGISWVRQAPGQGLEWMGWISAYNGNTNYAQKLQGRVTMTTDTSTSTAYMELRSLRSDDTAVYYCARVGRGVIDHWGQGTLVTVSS
VL: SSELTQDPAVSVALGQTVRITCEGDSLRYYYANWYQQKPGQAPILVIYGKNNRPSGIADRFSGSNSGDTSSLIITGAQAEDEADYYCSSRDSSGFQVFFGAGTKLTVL

The parent's light chain CDRs are EGDSLRYYYAN, GKNNRPS, SSRDSSGFQVF; each variant's own CDRs replace them letter for letter.
Each Kd is an estimate from the mating assay, the geometric mean of the replicates in which the pair was seen; lower is stronger.
A pair that was not seen in any replicate is written "nd"; this usually means weak binding, but a binder can also be missed.

With EGDSLRWYYAN / GKNNRPS / SSDDSSGFQVF the result was 1.4 µM (3 of 3 replicates).
With EGMSLRYYGAN / GKNNRPS / SSRDSTGFQVF the result was 48 nM (3 of 3 replicates).
With EGDSLRRYYAN / GKENRPS / SSRDSSGFQVI the result was 7.9 µM (2 of 3 replicates).
With EGDSLRYYYAN / SVNNRPS / SARDSSGFQVF the result was 11 µM (3 of 3 replicates).
With QGDSLRYYYAN / GKRNRPS / SSRDSSGFSVF the result was 790 nM (3 of 3 replicates).
With EGDSLRYYNAN / GKNNRWS / SSRDSSGFQKF the result was 25 nM (3 of 3 replicates).
With EGDSLFYYYAN / GLNNRPL / SSRDSSGFQVF the result was 81 µM (1 of 3 replicates).
With EGDSIRYYTAN / GKNPRPS / SSRDSSGFQVF the result was 17 µM (2 of 3 replicates).
With EGRSLRYYYWN / GDNNRPS / SSRDSSGFQVF the result was 4.5 µM (1 of 3 replicates).
With EGDSERYYYAN / GKNNWPS / SSRDSSGFQVI the result was 91 µM (1 of 3 replicates).
With EGWSLRYYYAN / GKNNRPS / SSRDSSEFQVF the result was 16 µM (2 of 3 replicates).
With EGDSLRYYYAN / GKNHRII / SSRDSSGFQVF the result was 1.9 µM (1 of 3 replicates).
With PGDSLRYVYAN / GKNNRPS / SSRDSYGFQVF the result was 29 µM (1 of 3 replicates).
With EGDSLRYYYAN / KKNNRPS / SSEDSSGFQVW the result was 1.7 µM (2 of 3 replicates).
With EGDSLSYYYAN / GKNNVPS / SSRQSSGFQVF the result was 52 µM (2 of 3 replicates).
With EGDSLRYFYAE / GKNNRPS / SIRDSSGFQVF the result was 13 µM (2 of 3 replicates).
With EGGSTCYYYAN / GKNNRPS / SSRDSSGFQVF the result was 5.6 µM (2 of 3 replicates).
With VGDSLRYYYAN / GKSNRPS / SSRASSGFQVF the result was 5.7 µM (3 of 3 replicates).
With EGDSLRNYYAN / GKNNRPS / SCRDSSGFMVF the result was 14 µM (3 of 3 replicates).
With EGMSGRYYYAN / GTNNRPS / SSRDSSGFQVF the result was 480 nM (3 of 3 replicates).
With EGDSLAYYYAN / GKYNRPS / SSRDSSGFQVF the result was nd (0 of 3 replicates).
With MGDSLRYYYAN / HKNNRPS / YSRDSSGFQVF the result was 21 µM (1 of 3 replicates).
With EGDSLRYYYAK / GKNNRPE / SSRDKSGFQVF the result was nd (0 of 3 replicates).
With EGDSLRYWYAN / GKKNRPS / SSMDSSGFQVF the result was 28 µM (1 of 3 replicates).
With WGDSLRCYYAN / GFNNRPS / SSRDSSGFQVF the result was 61 µM (2 of 3 replicates).
With EGDRNRYYYAN / GKNNRPS / SSRDSSGFQLF the result was 11 µM (2 of 3 replicates).
With EGDWLRYYYAN / GKNNMPS / SSRDSSGFQMF the result was 20 µM (2 of 3 replicates).
With EGDSLRYYYAN / GKNNRPS / SVRASSGFQVF the result was 660 nM (3 of 3 replicates).
With EGTPLRYYYAN / GKNNRPS / ASRDSSGFQVF the result was 720 nM (3 of 3 replicates).
With AGDSLRYRYAN / GKNNRPS / SSRDSSGFQLF the result was 170 nM (3 of 3 replicates).
With EGDSLRYYYAH / GKNNNPS / SSRDSSGFQVF the result was 19 µM (1 of 3 replicates).
With GGDSLRYYTAN / GKNNIPS / SSRDSSGFQVF the result was 1.3 µM (3 of 3 replicates).
With EGFSLRYYQAN / GKNNDPS / SSRDSSGFQVF the result was 1.1 µM (2 of 3 replicates).
With EGDSLRYYYAN / GKNNRDS / QSRDSLGFQVF the result was 840 nM (2 of 3 replicates).
With EGDSLRYYYAN / GKNNRPS / SHRDPSGCQVF the result was 210 nM (3 of 3 replicates).
With EGVSPRYYYAN / GKNNRPS / SSRDLSGFQVF the result was 1.1 µM (3 of 3 replicates).
With EGDSLRYMYAN / GKFNRHS / SSRDSSGFQVF the result was 14 µM (2 of 3 replicates).
With EGDFLRGYYAN / GKNNRPS / SSRDSAGFQVF the result was 170 nM (3 of 3 replicates).
With EGDSLRYYYAN / GKYNRPS / SSRDNRGFQVF the result was nd (0 of 3 replicates).
With ESDSLRYYYAN / GKNNNPS / SSRDSPGFQVF the result was 56 µM (1 of 3 replicates).

Extract of 4 entries:

Variant EGDWLRYYYAN / GKNNMPS / SSRDSSGFQMF showed 20 µM (2 of 3 replicates).
Variant EGMSGRYYYAN / GTNNRPS / SSRDSSGFQVF showed 480 nM (3 of 3 replicates).
Variant EGDFLRGYYAN / GKNNRPS / SSRDSAGFQVF showed 170 nM (3 of 3 replicates).
Variant EGDSLRYWYAN / GKKNRPS / SSMDSSGFQVF showed 28 µM (1 of 3 replicates).

Parent in this assay: reference entry 200 nM, copy in this library 180 nM.
Three control strains display no target. For library AAYL52, 28% of the pairings with them gave a signal, with a median of 8.2 µM and one signal in twenty below 800 nM, so weak values seen in few replicates may be background.

From the AlphaSeq antibody data of Engelhart et al. 2022 (doi:10.1038/s41597-022-01779-4), copy in the FLAb collection.